{"sequences": {"note": "Sequences of proteins named here, by UniProt entry; tags and fusion partners are left off.", "UniProt P19327, whole entry": "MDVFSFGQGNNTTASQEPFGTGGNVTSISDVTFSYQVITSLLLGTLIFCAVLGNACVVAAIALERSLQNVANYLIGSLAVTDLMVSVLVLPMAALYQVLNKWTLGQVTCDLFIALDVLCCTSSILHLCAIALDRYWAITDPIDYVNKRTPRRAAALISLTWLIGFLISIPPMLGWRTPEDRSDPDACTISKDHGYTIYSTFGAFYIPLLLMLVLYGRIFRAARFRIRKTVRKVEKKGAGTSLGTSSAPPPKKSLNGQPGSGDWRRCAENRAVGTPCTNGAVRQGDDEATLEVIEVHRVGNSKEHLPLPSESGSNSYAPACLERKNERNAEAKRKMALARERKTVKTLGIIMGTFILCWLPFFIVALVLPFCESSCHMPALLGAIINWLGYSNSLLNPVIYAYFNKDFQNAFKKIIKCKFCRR"}, "source": "ChEMBL document CHEMBL1124834", "about": "“5-HT1 and 5-HT2 binding profiles of the serotonergic agents alpha-methylserotonin and 2-methylserotonin” (J Med Chem, 1990)", "target": "5-hydroxytryptamine receptor 1A (Rattus norvegicus, UniProt P19327)"}
{"compound": "NCCc1c[nH]c2ccc(O)cc12", "note": "[SEROTONIN]", "values": [{"measurement": "Ki", "value": 2, "unit": "nM"}]}
